Assay results: patent publication US20060079453A1, “Hla binding peptides and their uses” (priority 2002, published 2006)
Read-outs that look alike come from different tables or passages of the source.

Amino acid sequences for entries named in this document (tags omitted). Residues count along the entry.
UniProt Q30154, 30-266: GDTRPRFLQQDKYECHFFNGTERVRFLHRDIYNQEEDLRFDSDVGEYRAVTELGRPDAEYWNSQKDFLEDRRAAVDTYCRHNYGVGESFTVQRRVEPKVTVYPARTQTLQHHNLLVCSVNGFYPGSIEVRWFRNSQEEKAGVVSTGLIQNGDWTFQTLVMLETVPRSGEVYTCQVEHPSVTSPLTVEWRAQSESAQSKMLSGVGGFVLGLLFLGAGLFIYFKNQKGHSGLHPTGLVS

Tests used:
Assay in all cases: biochemical
Type in all cases: binding
[1] = target: HLA-DR DRB1*0401 (DR4) (Homo sapiens, UniProt P01903+P01911, A100K/A169T/F76Y/I96L/K127E/L162R/M171V/N62H/P40V/Q125Y/R42H/S133A/S149N/S66Y/V115G/V209L/W38E)
[2] = target: HLA-DR DRB4*0101 (DR53) (Homo sapiens, UniProt P01903+P13762, G164S)
[3] = target: HLA-DR DRB1*0101 (DR1) (Homo sapiens, UniProt P01903+P01911, A100R/D57E/F55L/F60I/F76Y/I96L/L162R/M171V/P40L/Q125E/R42F/V115G/Y59C)
[4] = target: HLA-DR DRB1*0802 (DR8) (Homo sapiens, UniProt P01903+P01911, A100R/A103L/A169T/F76Y/H45Y/I96F/K41T/L162R/M171V/P40S/Q125H/Q178H/Q39Y/Q99D/R218S/R42G/S66Y/V115G/W38E)
[5] = target: HLA-DR DRB1*0701 (DR7) (Homo sapiens, UniProt P01903+P01911, A100R/A102G/A103Q/D57E/D86V/E43K/F76Y/K127E/L162R/M171V/P40G/Q125H/Q99D/R33Q/R42Y/R54Q/S133A/S66F/T210M/V115G/Y107V/Y59L/Y89S)
[6] = target: HLA-DR DRB5*0101 (DR51) (Homo sapiens, UniProt P01903+Q30154); conditions: DRB5 *0101
[7] = target: HLA-DR DRB1*0901 (DR9) (Homo sapiens, UniProt P01903+P01911, A100R/A103E/D57H/D86V/F55Y/F60I/F76Y/I96F/K127E/L162R/M171V/P40D/Q125H/Q99R/R33Q/R42F/S133A/S66N/T210M/V115G/W38K/Y107V/Y59G/Y89S); conditions: DRB1 *0901
[8] = target: HLA-DR DRB1*0301 (DR3) (Homo sapiens, UniProt P01903+P01911, A100K/A102G/A103R/A169T/F55Y/I96L/K41T/L162R/M171V/P40S/Q125H/Q178H/Q39Y/R42S/S66N/T106N/T262R/W38E/Y61H)

CC(C)C[C@H](NC(=O)[C@H](CO)NC(=O)[C@H](Cc1ccc(O)cc1)NC(=O)[C@@H](N)CS)C(=O)N[C@@H](Cc1ccc(O)cc1)C(=O)NCC(=O)N[C@H](C(=O)N[C@H](C(=O)N[C@@H](CC(C)C)C(=O)N[C@@H](CCC(=O)O)C(=O)N[C@@H](CCC(N)=O)C(=O)N[C@@H](CCC(N)=O)C(=O)N[C@@H](Cc1ccc(O)cc1)C(=O)N[C@@H](CC(N)=O)C(=O)N[C@@H](CCCCN)C(=O)O)[C@@H](C)O)[C@@H](C)O
IC50 ([1]; DRB1 *0401): 1.32 µM

CC[C@H](C)[C@H](NC(=O)[C@H](CO)NC(=O)[C@H](CC(C)C)NC(=O)[C@H](CCC(N)=O)NC(=O)[C@H](CC(C)C)NC(=O)[C@H](CCC(N)=O)NC(=O)[C@H](CCCNC(=N)N)NC(=O)[C@H](Cc1c[nH]cn1)NC(=O)[C@@H](N)CC(=O)O)C(=O)N[C@@H](CO)C(=O)N[C@@H](CO)C(=O)N[C@@H](CS)C(=O)N[C@@H](CC(C)C)C(=O)N[C@@H](CCC(N)=O)C(=O)N[C@@H](CCC(N)=O)C(=O)N[C@@H](CC(C)C)C(=O)N[C@@H](CO)C(=O)N[C@@H](CC(C)C)C(=O)N[C@@H](CC(C)C)C(=O)N[C@@H](CCSC)C(=O)O
IC50 ([1]; DRB1 *0401): 1.32 µM

CC[C@H](C)[C@H](NC(=O)CNC(=O)[C@H](Cc1ccccc1)NC(=O)[C@H](CO)NC(=O)CNC(=O)[C@H](CCSC)NC(=O)[C@H](CC(C)C)NC(=O)[C@H](CC(C)C)NC(=O)[C@H](CCC(=O)O)NC(=O)[C@H](CCC(N)=O)NC(=O)[C@H](CC(C)C)NC(=O)[C@@H](NC(=O)[C@H](CCCNC(=N)N)NC(=O)[C@@H](NC(=O)[C@@H](N)CC(=O)O)[C@@H](C)CC)[C@@H](C)CC)C(=O)O
IC50 ([1]; DRB1 *0401): 0.166 µM

CC(C)C[C@H](NC(=O)[C@H](CCC(=O)O)NC(=O)[C@H](CCCCN)NC(=O)[C@H](C)NC(=O)[C@H](CC(C)C)NC(=O)[C@@H](NC(=O)[C@H](CO)NC(=O)[C@H](CCCNC(=N)N)NC(=O)[C@@H](N)CC(=O)O)C(C)C)C(=O)N[C@@H](CCCCN)C(=O)N[C@@H](Cc1ccccc1)C(=O)N[C@H](C(=O)N[C@H](C(=O)N[C@@H](CC(C)C)C(=O)N[C@H](C(=O)O)C(C)C)[C@@H](C)O)C(C)C
IC50 ([1]; DRB1 *0401): 0.569 µM

CC(C)C[C@H](NC(=O)[C@H](C)NC(=O)[C@H](C)NC(=O)CN)C(=O)NCC(=O)NCC(=O)N[C@@H](C)C(=O)N[C@@H](C)C(=O)N[C@@H](CCCNC(=N)N)C(=O)N[C@@H](C)C(=O)N[C@@H](CC(C)C)C(=O)N[C@@H](C)C(=O)N[C@@H](Cc1c[nH]cn1)C(=O)NCC(=O)N[C@H](C(=O)O)C(C)C
IC50 [2]: 3.51 µM | IC50 [1]: 21.4 µM

CC(C)C[C@H](NC(=O)[C@@H]1CCCN1C(=O)[C@H](C)NC(=O)CN)C(=O)NCC(=O)NCC(=O)N[C@@H](C)C(=O)N[C@@H](C)C(=O)N[C@@H](CCCNC(=N)N)C(=O)N[C@@H](C)C(=O)N[C@@H](C)C(=O)N[C@@H](C)C(=O)N[C@@H](Cc1c[nH]cn1)C(=O)NCC(=O)N[C@H](C(=O)O)C(C)C
IC50 [3]: 0.797 µM

CC[C@H](C)[C@H](NC(=O)[C@H](Cc1ccc(O)cc1)NC(=O)[C@H](CC(C)C)NC(=O)[C@H](CC(C)C)NC(=O)[C@H](Cc1ccccc1)NC(=O)[C@H](CC(C)C)NC(=O)[C@H](Cc1ccccc1)NC(=O)[C@H](Cc1ccccc1)NC(=O)[C@@H](N)Cc1c[nH]cn1)C(=O)N[C@@H](CC(C)C)C(=O)N[C@@H](Cc1ccccc1)C(=O)N[C@@H](CC(C)C)C(=O)N[C@H](C(=O)N[C@@H](CCCCN)C(=O)N[C@@H](CCSC)C(=O)O)C(C)C
IC50 [4]: 19.6 µM | IC50 ([5]; DRB1 *0701): 42.4 µM | IC50 ([1]; DRB1 *0401): 0.26 µM | IC50 [6]: 10.1 µM

CC[C@H](C)[C@H](NC(=O)[C@H](C)NC(=O)[C@@H]1CCCN1C(=O)[C@H](CO)NC(=O)CNC(=O)[C@@H]1CCCN1C(=O)CNC(=O)[C@@H]1CCCN1C(=O)CNC(=O)[C@H](CC(N)=O)NC(=O)[C@H](CC(C)C)NC(=O)[C@@H](NC(=O)[C@H](CCCNC(=N)N)NC(=O)[C@@H]1CCCN1C(=O)[C@H](CO)NC(=O)[C@@H](NC(=O)[C@H](C)NC(=O)[C@H](CCC(N)=O)NC(=O)[C@@H](N)Cc1c[nH]cn1)[C@@H](C)CC)[C@@H](C)O)C(=O)N[C@@H](Cc1ccccc1)C(=O)O
IC50 ([1]; DRB1 *0401): 12.1 µM

CSCC[C@H](NC(=O)[C@H](CCCNC(=N)N)NC(=O)[C@H](CCCCN)NC(=O)CNC(=O)[C@H](CCCNC(=N)N)NC(=O)[C@@H](NC(=O)[C@H](Cc1ccccc1)NC(=O)[C@H](CC(=O)O)NC(=O)[C@H](CCC(=O)O)NC(=O)[C@H](CCCCN)NC(=O)[C@H](CCC(=O)O)NC(=O)[C@@H](N)CC(C)C)[C@@H](C)O)C(=O)N[C@@H](CO)C(=O)N[C@@H](CO)C(=O)N[C@@H](CC(C)C)C(=O)O
IC50 [7]: > 77.3 µM | IC50 ([1]; DRB1 *0401): > 20.9 µM | IC50 [8]: 50.7 µM

CC(C)C[C@H](NC(=O)[C@H](CCCCN)NC(=O)[C@H](Cc1c[nH]cn1)NC(=O)[C@@H](N)CC(C)C)C(=O)N[C@@H](CCC(N)=O)C(=O)N[C@H](C(=O)N[C@@H](Cc1ccc(O)cc1)C(=O)N1CCC[C@H]1C(=O)N[C@@H](CCCNC(=N)N)C(=O)N[C@H](C(=O)N[C@@H](CC(N)=O)C(=O)N[C@H](C(=O)NCC(=O)N[C@@H](CO)C(=O)NCC(=O)O)[C@@H](C)O)[C@@H](C)O)[C@@H](C)O
IC50 ([1]; DRB1 *0401): 15.2 µM

CC[C@H](C)[C@H](NC(=O)[C@H](Cc1c[nH]cn1)NC(=O)[C@H](CCC(N)=O)NC(=O)[C@H](CC(N)=O)NC(=O)[C@H](Cc1ccccc1)NC(=O)[C@H](CC(C)C)NC(=O)[C@H](Cc1ccc(O)cc1)NC(=O)[C@H](Cc1ccc(O)cc1)NC(=O)[C@@H](N)CC(C)C)C(=O)N[C@@H](CCCCN)C(=O)N[C@@H](CCCCN)C(=O)N[C@@H](CCC(=O)O)C(=O)N[C@@H](CC(C)C)C(=O)N[C@@H](Cc1ccc(O)cc1)C(=O)N[C@@H](Cc1c[nH]cn1)C(=O)O
IC50 ([1]; DRB1 *0401): 1.32 µM

CSCC[C@H](N)C(=O)N[C@@H](CO)C(=O)N[C@@H](Cc1ccc(O)cc1)C(=O)N[C@@H](CC(N)=O)C(=O)N[C@@H](CC(C)C)C(=O)N[C@@H](CC(C)C)C(=O)NCC(=O)N[C@@H](Cc1ccccc1)C(=O)N[C@@H](CC(C)C)C(=O)N[C@@H](CCC(N)=O)C(=O)N[C@@H](CCCNC(=N)N)C(=O)N[C@@H](CO)C(=O)N[C@@H](CO)C(=O)N[C@@H](CC(N)=O)C(=O)N[C@H](C(=O)O)[C@@H](C)O
IC50 ([1]; DRB1 *0401): 1.15 µM

CC[C@H](C)[C@H](NC(=O)[C@@H]1CCCN1C(=O)[C@H](CC(=O)O)NC(=O)[C@@H](NC(=O)[C@@H]1CCCN1C(=O)[C@H](Cc1ccccc1)NC(=O)[C@@H](NC(=O)[C@H](CC(=O)O)NC(=O)[C@@H](NC(=O)[C@@H]1CCCN1C(=O)[C@H](CO)NC(=O)[C@@H](N)CCCNC(=N)N)[C@@H](C)CC)[C@@H](C)O)[C@@H](C)O)C(=O)N[C@@H](CCCCN)C(=O)N[C@@H](CCC(=O)O)C(=O)N[C@@H](CO)C(=O)O
IC50 ([1]; DRB1 *0401): 13.1 µM

CC[C@H](C)[C@H](NC(=O)[C@H](CO)NC(=O)[C@@H](N)[C@@H](C)O)C(=O)N[C@H](C(=O)N[C@@H](CO)C(=O)N[C@@H](CC(C)C)C(=O)N[C@@H](Cc1ccc(O)cc1)C(=O)N[C@@H](CCC(N)=O)C(=O)N[C@@H](CC(C)C)C(=O)N[C@@H](CCC(=O)O)C(=O)N[C@@H](CC(N)=O)C(=O)N[C@@H](Cc1ccc(O)cc1)C(=O)N[C@H](C(=O)N[C@@H](CC(N)=O)C(=O)O)[C@@H](C)O)[C@@H](C)O
IC50 ([1]; DRB1 *0401): 1.47 µM

ALGAQKEAISPPDAA
IC50 ([4]; read-out: DRB1 *0802): > 60.2 µM | IC50 ([5]; read-out: DRB1 *0701): > 71.2 µM | IC50 ([1]; read-out: DRB1 *0401): > 21.5 µM | IC50 ([8]; read-out: DRB1 *0301): > 204 µM

LSFFLKEKGGLDGL
IC50 ([1]; read-out: DRB1 *0401): 1.28 µM
